PubChem BioAssay AID528 (NMMLSC, 2006)
The list shows a part of the results, in another mix than the full data. Some of these compounds have results that are not shown, active ones among them. Results filed as inconclusive are left out. Activity calls are given as the source filed them.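 Rule for the calls: active = fluorescent ligand binding to cells raised by more than 40% of the manganese-induced maximum; inconclusive = compound's own fluorescence above 85% of the ligand control signal; inactive = the rest.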

Chains of the proteins cited; added tags and fusions are not shown.
UniProt P13612, whole entry, looked up: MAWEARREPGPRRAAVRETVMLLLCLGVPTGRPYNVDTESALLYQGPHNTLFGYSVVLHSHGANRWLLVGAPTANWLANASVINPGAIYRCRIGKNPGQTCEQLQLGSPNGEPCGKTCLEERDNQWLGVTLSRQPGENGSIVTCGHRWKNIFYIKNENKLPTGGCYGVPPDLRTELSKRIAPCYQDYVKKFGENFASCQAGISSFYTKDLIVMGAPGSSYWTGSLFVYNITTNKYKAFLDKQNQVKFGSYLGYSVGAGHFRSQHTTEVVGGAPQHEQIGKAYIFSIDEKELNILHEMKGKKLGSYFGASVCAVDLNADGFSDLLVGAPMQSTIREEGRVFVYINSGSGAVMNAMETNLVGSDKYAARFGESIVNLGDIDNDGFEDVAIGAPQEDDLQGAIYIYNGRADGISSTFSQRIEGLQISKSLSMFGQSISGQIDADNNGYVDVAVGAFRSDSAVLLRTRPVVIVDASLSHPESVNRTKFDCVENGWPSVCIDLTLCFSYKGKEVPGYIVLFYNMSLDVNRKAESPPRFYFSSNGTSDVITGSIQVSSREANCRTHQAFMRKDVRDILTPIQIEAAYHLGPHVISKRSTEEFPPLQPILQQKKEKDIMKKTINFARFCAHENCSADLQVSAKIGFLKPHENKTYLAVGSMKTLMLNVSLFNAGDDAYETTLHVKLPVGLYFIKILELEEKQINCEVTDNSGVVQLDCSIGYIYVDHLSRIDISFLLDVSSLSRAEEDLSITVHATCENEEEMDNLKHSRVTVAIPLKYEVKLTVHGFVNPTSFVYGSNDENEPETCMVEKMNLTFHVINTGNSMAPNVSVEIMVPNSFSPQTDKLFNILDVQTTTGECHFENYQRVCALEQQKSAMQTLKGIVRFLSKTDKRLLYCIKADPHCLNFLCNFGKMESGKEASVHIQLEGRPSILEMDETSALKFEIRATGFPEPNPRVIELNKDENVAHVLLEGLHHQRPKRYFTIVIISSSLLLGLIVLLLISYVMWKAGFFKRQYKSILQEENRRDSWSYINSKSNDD

molecular target: Integrin alpha-4 (Homo sapiens) (UniProt P13612); experiment: increased LDV-FITC ligand binding on VLA-4 – Jurkat cells, flow cytometry, primary screen (AID 528); settings: hits give high values, screened at 10 µM (by protocol);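 note: 0% = ligand binding without compound and 100% = manganese-stimulated maximal binding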

SMILES	activation
O=C(OC1CN2CCC1CC2)C(CO)(c1ccccc1)c1ccccc1 (stereo unspecified)	inactive: 4%
